Measurements: PubChem BioAssay (NCATS)
The entries are a selection whose mix differs from that of the whole data set. Inconclusive results are not listed. Calls of active or inactive are those of the source. Unless noted, the call rests on the fitted dose curve; in most records, active means well fitted curve in the direction sought with a large enough effect; inconclusive means small, poorly fitted or top-dose-only effect, or another doubt; inactive means no such curve, though single readings can be large; an effect the other way counts as inactive or inconclusive.

By UniProt entry, the sequences of proteins in these tests, tags left out.
UniProt Q07343, whole entry: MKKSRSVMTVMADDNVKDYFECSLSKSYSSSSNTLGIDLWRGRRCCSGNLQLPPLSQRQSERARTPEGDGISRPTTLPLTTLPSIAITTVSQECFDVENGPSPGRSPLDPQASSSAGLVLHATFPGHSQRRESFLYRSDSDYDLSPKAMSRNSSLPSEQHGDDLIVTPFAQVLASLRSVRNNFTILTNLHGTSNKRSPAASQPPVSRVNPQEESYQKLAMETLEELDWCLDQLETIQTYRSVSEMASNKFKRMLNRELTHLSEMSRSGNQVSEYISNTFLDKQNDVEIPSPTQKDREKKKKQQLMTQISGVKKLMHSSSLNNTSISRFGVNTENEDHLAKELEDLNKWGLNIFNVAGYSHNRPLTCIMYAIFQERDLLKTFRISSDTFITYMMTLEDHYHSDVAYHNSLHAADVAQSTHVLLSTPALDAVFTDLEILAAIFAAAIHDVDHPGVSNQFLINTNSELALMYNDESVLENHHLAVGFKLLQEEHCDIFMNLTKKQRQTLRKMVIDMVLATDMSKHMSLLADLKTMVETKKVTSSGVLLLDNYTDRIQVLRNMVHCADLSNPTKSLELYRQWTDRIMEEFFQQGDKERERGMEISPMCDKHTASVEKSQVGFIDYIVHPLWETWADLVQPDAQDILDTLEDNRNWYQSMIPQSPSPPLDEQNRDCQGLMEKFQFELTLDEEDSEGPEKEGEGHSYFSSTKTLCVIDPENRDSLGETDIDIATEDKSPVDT

What was measured:
[1] = target: 3',5'-cyclic-AMP phosphodiesterase 4B (Homo sapiens) (UniProt Q07343); assay: qHTS Assay for Inhibitors of PDE-IV (AID 607; active means well fitted activation curve with a large enough effect in the main read-out, with a control signal flat, not every such curve was filed as active; further: % of control where 0% means no effect); settings: HEK293 ACTOne CNG channel cells, membrane potential fluorescence; at 22.9 µM (top of the series)
In short: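 Cell-based read-out of cAMP via a modified cyclic nucleotide-gated channel and membrane potential dye (535/590 nm) in HEK293 cells expressing PDE4 endogenously. Compounds tested up to 22.9 uM final; 100 uM RO 20-1724 reference.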

[2] = Cell Viability - Mesenchymal (AID 546); settings: mesenchymal cells viability, qHTS; at 91.7 µM (top of the series);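 further: cells exposed to compound for 40 hours before reading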
In short: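 CellTiter-Glo luminescence (intracellular ATP, 20 min room temperature) after 40 hr compound exposure at 37 °C of 1000 glomerulus-derived human kidney mesenchymal cells/well; AC50 values obtained by fitting qHTS concentration-response data to the Hill equation.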

[3] = Cellular Toxicity (caspase-3) HepG2 (AID 654); settings: HepG2 caspase-3 activation, luminescence, 0% = DMSO only, 100% = tamoxifen; at 92.2 µM (top of the series);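 further: cells exposed to compound for 16 hours before reading; 0% = DMSO alone and 100% = caspase signal from 100 µM tamoxifen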
In short: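 Caspase 3/7 activation in HepG2 is measured as rising luminescence after a 16 hr treatment at 37 °C. Values are scaled between DMSO basal and 100 uM tamoxifen, and AC50 is fitted with the Hill equation.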

[4] = Cellular Toxicity (caspase-3) Jurkat (AID 655); settings: Jurkat caspase-3 activation, luminescence, DMSO = 0%, tamoxifen = 100%; at 92.2 µM (top of the series);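 further: cells exposed to compound for 16 h at 37 °C before reading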
Excerpt: (§1) NIH Chemical Genomics Center [NCGC]
(§2) NIH Molecular Libraries Screening Centers Network [MLSCN]
(§3) National Institutes of Environmental Health Sciences [NIEHS]
(§4) National Toxicology Program [NTP]
We have developed a 1536-well cell-based assay for quantitative high throughput screening (qHTS) against a number of cell lines to determine in vitro caspase 3/7 of small molecules. This particular assay uses the Jurkat cell line which is derived from human T cell leukemia.
(§5) NCGC Assay Protocol Summary:
(§6) The Caspase-Glo 3/7 assay (Promega) is a homogeneous method to measure caspase-3 and caspase-7 activities in cultured cells. The quantitation of caspase 3/7 activity is based on the cleavage of a peptide-aminoluciferin substrate. […]
(§7) Using the Caspase-Glo 3/7 assay, the amount of caspase 3/7 activity was measured in the Jurkat cell line with complete culture medium following compound treatment for 16 hours. […] Library compounds were measured for their ability to cause the activation of caspase 3/7 in the cell line, as reflected by an increase in luminescence signal, in a concentration-dependent manner. […] AC50 values were determined from concentration-response data modeled with the standard Hill equation. […]
7. Detection; Luminescence; Viewlux plate reader
Keywords: caspase 3/7, apoptosis, Jurkat cell line, luminescence, NTPHTS, NTPHTS_NCGC, NIEHS, EPA, DSSTox, MLSMR, MLSCN, NIH Roadmap, qHTS, NCGC

[5] = Cellular Toxicity (caspase-3) HUV-EC-C (AID 656); settings: HUV-EC-C cells, caspase-3 activation (apoptosis), vehicle = 0, 100 µM tamoxifen = 100%; at 92.2 µM (top of the series)
In short: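 HUV-EC-C endothelial cells, 1000/well, were pre-incubated 5 hr at 37°C, then exposed to compounds for 16 hr at 37°C. Caspase-Glo 3/7 luminescence was read after 20 min at room temperature. AC50 came from Hill fits, normalized to DMSO and 100 uM tamoxifen.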

[6] = Cellular Toxicity (caspase-3) SHSY5Y (AID 657); settings: SH-SY5Y caspase-3 activation, DMSO zero, 10 µM staurosporine = 100%; at 91.7 µM (top of the series)
Excerpt: as §1, §2, §3, §4
We have developed a 1536-well cell-based assay for quantitative high throughput screening (qHTS) against a number of cell lines to determine in vitro caspase 3/7 activity of small molecules. This particular assay uses the SH-SY5Y cell line which is derived from human neuroblastoma.
as §5, §6
as §7, with “SH-SY5Y” for “Jurkat”
8. Detection; Luminescence; Viewlux plate reader
Keywords: caspase 3/7, apoptosis, SH-SY5Y cell line, luminescence, NTPHTS, NTPHTS_NCGC, NIEHS, EPA, DSSTox, MLSMR, MLSCN, NIH Roadmap, qHTS, NCGC

[7] = Cellular Toxicity (caspase-3) BJ (AID 658); settings: BJ fibroblasts, luminescence, normalized: DMSO 0%, staurosporine 100%; at 91.7 µM (top of the series)
In short: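 Caspase-Glo 3/7 luminescence, read 1 hr after reagent at room temperature, in normal BJ fibroblasts exposed 16 hours at 37 °C. AC50 values from Hill-equation concentration-response, scaled between DMSO basal and 10 uM staurosporine as 100%.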

[8] = Cellular Toxicity (caspase-3) MRC-5 (AID 659); settings: MRC-5 cells, luminescence, normalized: DMSO 0%, 10 µM staurosporine 100%; at 91.7 µM (top of the series)
In short: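 Luminescent Caspase-Glo 3/7 read-out (1 h, room temperature) after a 16 h, 37 °C compound exposure of MRC-5 lung fibroblasts at 1500 cells/well. Concentration-response AC50 from Hill equation; 0% DMSO, 100% 10 uM staurosporine.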

[9] = Cellular Toxicity (caspase-3) Mesangial (AID 660); settings: mesangial cells, normalized: DMSO 0%, 100 µM tamoxifen 100%; at 91.7 µM (top of the series);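 further: combined caspase 3 and 7 activity read by Caspase-Glo luminescence; cells exposed to compound for 16 h before the caspase read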
In short: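 Seed cells derived from normal human renal glomeruli, incubate 5 h, add compounds across concentrations and incubate 16 h at 37 °C. Caspase 3/7 activation is then quantified by luciferase light, with AC50 derived by Hill modeling.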

[10] = Cellular Toxicity (caspase-3) SK-N-SH (AID 661); settings: SK-N-SH caspase-3 activation, qHTS, DMSO as zero, staurosporine as full; at 91.7 µM (top of the series)
In short: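 Cells were seeded and incubated 5 hr at 37 °C, dosed with compound over a concentration range for 16 hr, then given Caspase-Glo 3/7 reagent for 1 hr at room temperature before luminescence reading.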

O=C(O)C1(Nc2ccccc2)CCN(Cc2ccccc2)CC1
inactive: activation (PDE inhibition) [1] -4.04%

CCOP(=O)(Cl)Cl
inactive: activity change, negative = cytotoxicity [2] 6.77% | caspase-3 activation [3] -0.427% | caspase-3 activation [4] 0.588% | caspase-3 activation [5] -3.81% | caspase-3 activation [6] -1.75% | caspase-3 activation [7] -0.643% | caspase-3 activation [8] 2.27% | caspase-3 activation [9] -0.0102% | caspase-3 activation [10] 0.484%

ClCCOP(OCCCl)OCCCl
inactive: activity change, negative = cytotoxicity [2] 2.78% | caspase-3 activation [3] -0.284% | caspase-3 activation [4] 1.23% | caspase-3 activation [5] -5.16% | caspase-3 activation [6] 2.44% | caspase-3 activation [7] -0.473% | caspase-3 activation [8] 0.962% | caspase-3 activation [9] 1.06% | caspase-3 activation [10] 0.479%

NC1CCCCC1.NP(=O)(O)N(CCCl)CCCl
inactive: activation (PDE inhibition) [1] 3.73%
